# Reference: patent EP2057188B1 (priority 2006, dated 2008)
# Molecular target: human GIP receptor
# Conditions: read-out: GIP RBA; the 20th table; modification at residue 2 or residues 2+3; same values are given in nM
substance,measurement,value
YaEGTFISDYSIAMDKIHQQDFVNWLLAQKPSSGAPPPS-NH2 [Compound 0601GIP3794],IC50,3.8 nM
